# According to patent publication US20060148818A1, “Novel tetraydrospiro(piperdine-2,7'- pyrrolo{3,2-b}pyridine derivatives and novel in-dole derivatives useful in the treatment of 5-ht6 receptor-related disorders” (priority 2003, published 2006):
# Sequences of proteins named here, by UniProt entry; tags and fusion partners are left off.
# UniProt P50406, whole entry: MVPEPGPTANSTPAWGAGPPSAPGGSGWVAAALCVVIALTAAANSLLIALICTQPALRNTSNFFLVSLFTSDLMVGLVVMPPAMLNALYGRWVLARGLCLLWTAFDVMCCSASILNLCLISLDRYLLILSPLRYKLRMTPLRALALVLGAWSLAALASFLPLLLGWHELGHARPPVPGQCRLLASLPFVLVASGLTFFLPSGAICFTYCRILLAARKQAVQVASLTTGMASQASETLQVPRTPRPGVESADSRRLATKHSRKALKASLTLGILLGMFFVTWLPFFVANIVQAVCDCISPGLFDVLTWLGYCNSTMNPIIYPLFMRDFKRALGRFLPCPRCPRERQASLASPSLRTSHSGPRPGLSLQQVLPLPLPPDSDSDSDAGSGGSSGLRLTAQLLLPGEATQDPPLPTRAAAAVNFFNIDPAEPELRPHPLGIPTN
# Where a name gives a salt, the structure may show the parent alone.
# Molecular target: human 5-HT6 receptor (Homo sapiens, UniProt P50406)
# Experiment: biochemical
row,Structure (SMILES),Ki [nM]
1,"O=C(CNCCO)Nc1cccc2c1ccn2S(=O)(=O)c1ccccc1 [Example 5, N-(1-Benzenesulfonyl-1H-indol-4-yl)-2-(2-hydroxy-ethylamino)-acetamide]",230
2,O=S(=O)(c1ccccc1)n1ccc2c(Nc3ccncc3)cccc21 [Example 6],356
3,"O=S(=O)(Nn1ccc2c(N3CCNCC3)cccc21)c1ccccc1 [Example 7, N-(4-piperazin-1-yl-1H-indol-1-yl)benzenesulfonamide hydrochloride]",184
4,"Cc1ccc(S(=O)(=O)n2ccc3c4c(ccc32)CCC(N)C4)cc1 (stereo not shown) [Example 8, 3-[(4-Methylphenyl)sulfonyl]-6,7,8,9-tetrahydro-3H-benzo[e]indol-8-amine trifluoroacetate]",94
